Measured values as given in BindingDB's records for doi:10.1016/S0960-894X(97)00333-8 (Gilead Sciences, 1997).

Biological target: Hemagglutinin (Influenza A virus (A/Shandong/9/1993(H3N2)), UniProt Q6DM53)
Conditions: pH 6.5; 37 °C

Which IC50 does the source give for `CC(=O)N[C@H]1[C@H]([C@H](O)[C@H](O)CO)OC(C(=O)O)=C[C@@H]1N=C(N)N` [(2R,3R,4S)-4-carbamimidamido-3-acetamido-2-[(1R,2R)-1,2,3-trihydroxypropyl]-3,4-dihydro-2H-pyran-6-carboxylic acid] here?
The IC50 was 5 nM.
